Reference: paper PMC9857240, “The Nuclear Transporter Importin 13 Can Regulate Stress-Induced Cell Death through the Clusterin/KU70 Axis” (Cells, 2023)

Target: T1, biotinylated GST-IPO13 (UniProt Q8K0C1 1-963, biotinylated)
T1 construct: Importin 13; also called pGEX4T2-IPO13; source: E. coli BL21, purified (glutathione agarose beads), biotinylated
T1 sequence (looked up): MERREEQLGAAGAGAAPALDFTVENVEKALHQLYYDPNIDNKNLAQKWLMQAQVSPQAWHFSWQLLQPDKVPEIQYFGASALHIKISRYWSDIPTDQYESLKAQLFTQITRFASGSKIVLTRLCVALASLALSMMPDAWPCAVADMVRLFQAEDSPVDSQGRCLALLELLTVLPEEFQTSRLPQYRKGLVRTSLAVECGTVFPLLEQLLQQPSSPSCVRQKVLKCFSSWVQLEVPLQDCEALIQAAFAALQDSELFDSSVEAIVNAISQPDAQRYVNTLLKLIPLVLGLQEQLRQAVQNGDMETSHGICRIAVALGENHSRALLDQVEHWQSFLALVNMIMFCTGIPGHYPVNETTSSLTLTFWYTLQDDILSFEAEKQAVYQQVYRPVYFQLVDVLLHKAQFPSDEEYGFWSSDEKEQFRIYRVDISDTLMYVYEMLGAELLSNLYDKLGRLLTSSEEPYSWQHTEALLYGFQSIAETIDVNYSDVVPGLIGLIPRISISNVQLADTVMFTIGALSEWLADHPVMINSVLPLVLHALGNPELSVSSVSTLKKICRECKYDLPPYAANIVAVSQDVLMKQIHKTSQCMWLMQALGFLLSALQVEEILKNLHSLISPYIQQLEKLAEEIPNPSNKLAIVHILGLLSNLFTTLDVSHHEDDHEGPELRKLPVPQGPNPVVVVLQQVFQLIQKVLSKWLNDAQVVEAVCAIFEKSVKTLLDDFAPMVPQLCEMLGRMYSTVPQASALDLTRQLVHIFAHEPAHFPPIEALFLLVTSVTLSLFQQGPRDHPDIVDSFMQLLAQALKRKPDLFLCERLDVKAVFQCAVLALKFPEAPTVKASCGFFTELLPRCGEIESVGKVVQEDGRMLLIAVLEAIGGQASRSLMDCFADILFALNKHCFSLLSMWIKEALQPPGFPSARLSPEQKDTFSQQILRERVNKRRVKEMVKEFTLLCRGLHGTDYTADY
Test: AlphaScreen or HTRF; 30 nM His6-GFP fusion protein with 0-60 nM biotinylated GST-IPO13; triplicates, sigmoidal association curves
Settings: both partners purified

B1: His6-GFP-KU70 (natural protein, UniProt P12956 1-609, looked up)
chain: MSGWESYYKTEGDEEAEEEQEENLEASGDYKYSGRDSLIFLVDASKAMFESQSEDELTPFDMSIQCIQSVYISKIISSDRDLLAVVFYGTEKDKNSVNFKNIYVLQELDNPGAKRILELDQFKGQQGQKRFQDMMGHGSDYSLSEVLWVCANLFSDVQFKMSHKRIMLFTNEDNPHGNDSAKASRARTKAGDLRDTGIFLDLMHLKKPGGFDISLFYRDIISIAEDEDLRVHFEESSKLEDLLRKVRAKETRKRALSRLKLKLNKDIVISVGIYNLVQKALKPPPIKLYRETNEPVKTKTRTFNTSTGGLLLPSDTKRSQIYGSRQIILEKEETEELKRFDDPGLMLMGFKPLVLLKKHHYLRPSLFVYPEESLVIGSSTLFSALLIKCLEKEVAALCRYTPRRNIPPYFVALVPQEEELDDQKIQVTPPGFQLVFLPFADDKRKMPFTEKIMATPEQVGKMKAIVEKLRFTYRSDSFENPVLQQHFRNLEALALDLMEPEQAVDLTLPKVEAMNKRLGSLVDEFKELVYPPDYNPEGKVTKRKHDNEGSGSKRPKVEYSEEELKTHISKGTLGKFTVPMLKEACRAYGLKSGLKKQELLEALTKHFQD
notes: KU70 (XRCC6), PCR-amplified from pentr322-KU70, via pDONR207 into pGFP-attC; also called His6-tagged GFP-KU70; source: E. coli BL21 pRep4, purified (Ni-NTA under 8 M urea, renatured on the column, size exclusion FPLC)
- Kd: 7.3 nM
